For one test, the target named is HK853 (Thermotoga maritima, UniProt Q9WZV7). The test is described as follows: Inhibition of HK853 activity (BODIPY-ATPγS competition, HK autophosphorylation). It is filed as biochemical.
The next test relates to P. aeruginosa PA14. The test is described as follows: RT-qPCR of virulence and TCS genes in PA14. It is filed as cell-based, Pseudomonas aeruginosa. The conditions noted are these: PA14, 9 h, 200 and 500 μM. The method, then: RNA isolation, Reverse Transcriptase -qPCR experiments
P. aeruginosa PA14 strain was grown overnight (~16 h) in LB media at 37 °C and 200 RPM.
The overnight culture was diluted 1:100 in fresh LB media. Four mL of this culture was then taken in a 15 mL borosilicate glass tube, to which Rilu-inhibitors in DMSO were added to a final concentration of 200 µM or 500 µM (for the control experiments, same amount of DMSO was added). These cultures were then grown for 9 h (late exponential phase) at 37 °C and 200 RPM, OD620 ~0.7. Total RNA was extracted from ~2 mL cell pellet using an RNAEasy Mini kit (Qiagen), according to the manufacturer’s instructions, including exogenous DNase treatment with Ambion Turbo-DNAse Kits. RNA integrity was confirmed by native gel electrophoresis and the quantities were measured using a nanophotometer. cDNA was generated using the DNA-free total RNA using (Applied Biosystems High Capacity cDNA Reverse Transcription Kits) random-primed reverse transcriptase reaction following the manufacturer’s protocol. The cDNA was used as template for quantitative PCR (BioRad MyiQ2 dual-color system) using the SYBR Green detection system (BioRad) on white 96-well PCR plates. […]
expression = 2(CT standard −C T sample), where CT (cycle time) was determined automatically by the Real Time iQ5 PCR software (BioRad). […]

Amino acid sequences for entries named in this document (tags omitted).
UniProt Q9WZV7, entry or part of it: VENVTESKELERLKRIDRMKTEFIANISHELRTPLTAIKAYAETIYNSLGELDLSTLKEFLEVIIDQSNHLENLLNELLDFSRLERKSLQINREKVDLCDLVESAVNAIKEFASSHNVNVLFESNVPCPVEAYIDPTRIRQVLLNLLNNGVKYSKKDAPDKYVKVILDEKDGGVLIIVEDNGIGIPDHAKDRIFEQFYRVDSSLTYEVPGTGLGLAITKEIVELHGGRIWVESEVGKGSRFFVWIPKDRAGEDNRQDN

Like-named read-outs stand apart in the source and are kept apart here.

As to `Nc1nc2cc3sc(N)nc3cc2s1` [Rilu-12], the 50% inhibitory concentration (IC50) at HK853 (Fig. 1b and text, HK autophosphorylation, read-out: IC50 values for HK853 inhibitory activity) worked out at 1.6 µM; at HK853 (IC50 values (µM) (95% confidence interval), n = 2, Table S1, HK853 inhibition), 1.56 µM. Moreover, the “gacA expression, downregulation / fold change” value in the test on P. aeruginosa PA14 is on record as 12–15 fold.

As usually defined, the IC50 is the midpoint of a concentration-inhibition curve.

(Values after publication PMC6237130, “Disarming the virulence arsenal of Pseudomonas aeruginosa by blocking two-component system signaling” (Chemical Science, 2018).)
